Experimental data: ChEMBL document CHEMBL6092210, “Synthesis, in vitro and in vivo biological evaluation of novel dual compounds targeting both acetylcholinesterase and serotonergic 5-HT4 receptors with potential interest in the treatment of Alzheimer's disease” (Eur J Med Chem, 2024)

By UniProt entry, the sequences of proteins in these tests, tags left out. Where a name states a change or a piece, a line headed by the entry shows the natural chain unless it says otherwise.
UniProt P22303: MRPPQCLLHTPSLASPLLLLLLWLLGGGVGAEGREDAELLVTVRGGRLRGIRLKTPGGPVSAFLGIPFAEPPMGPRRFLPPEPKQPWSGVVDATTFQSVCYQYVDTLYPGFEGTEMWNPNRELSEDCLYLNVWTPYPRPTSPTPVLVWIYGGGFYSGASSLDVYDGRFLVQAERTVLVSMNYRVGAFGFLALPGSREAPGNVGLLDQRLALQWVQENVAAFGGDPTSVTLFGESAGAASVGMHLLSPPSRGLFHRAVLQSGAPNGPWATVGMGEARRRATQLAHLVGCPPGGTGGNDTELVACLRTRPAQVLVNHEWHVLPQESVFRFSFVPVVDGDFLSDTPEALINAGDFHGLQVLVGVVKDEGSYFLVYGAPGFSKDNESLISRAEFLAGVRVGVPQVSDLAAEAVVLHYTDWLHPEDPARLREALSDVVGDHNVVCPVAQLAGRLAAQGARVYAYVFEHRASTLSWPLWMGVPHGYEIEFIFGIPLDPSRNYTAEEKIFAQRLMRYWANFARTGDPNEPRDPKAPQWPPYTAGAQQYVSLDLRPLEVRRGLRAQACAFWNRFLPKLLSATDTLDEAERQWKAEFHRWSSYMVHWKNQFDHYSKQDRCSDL

Target: Acetylcholinesterase (Homo sapiens, UniProt P22303)
Test: Inhibition of recombinant human erythrocyte AChE using acetyl-or butyrylthiocholine iodide as substrate preincubated for 5 mins followed by substrate addition and measured every min for 10 mins by Ellman's method
In short: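 AChE from human erythrocytes (0.05 U final) or recombinant AChE (0.025 U final), diluted in 20 mM HEPES pH 8 with 0.1 % Triton X-100, in an Ellman assay. DTNB is 0.3 mM in phosphate buffer pH 7.4 and compound is in DMSO. Enzyme and compound are preincubated 5 min at 25 °C. Reaction starts with 1 mM acetylthiocholine iodide solution.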

**Q.** Which IC50 does the source give for [2H]C([2H])([2H])Oc1cc(N)c(Cl)cc1C(=O)CCC1CCN(CC2CCCCC2)CC1 here?
**A.** Its IC50 is 22.6 nM.
